From EPA's ToxValDB 9.5

Tested on: Rattus norvegicus
Settings: acute; oral

CC(O)C(=O)O (stereo unspecified) [Lactic acid]
LD50: ≤ 4940 mg/kg
